System: mammary tumors of MMTV-Neu (YD) mice
Test: Treatment of tumor-bearing MMTV-Neu(YD) mice, tumor volume by caliper
Assay type: in vivo
Conditions: Neu(YD)/b4-WT and Neu(YD)/b4-1355T mice; single dose 10 mg/Kg, day 21

COc1cccc2c1C(=O)c1c(O)c3c(c(O)c1C2=O)C[C@@](O)(C(=O)CO)C[C@@H]3O[C@H]1C[C@H](N)[C@H](O)[C@H](C)O1 [Doxorubicin]
growth rate of tumors: reduced the growth rate of tumors in Neu(YD)/b4-WT and Neu(YD)/b4-1355T mice by a similar extent

— patent US20080317752A1, “Inhibition of Tumorigenesis by Inhibition of a6b4 Integrin” (Sloan-Kettering Institute for Cancer Research, priority 2005, published 2008)
